# Antibody variant affinities, Ab-95 light chain, assay 2

All variants were tested on one target, the spike HR2 peptide PDVDLGDISGINAS (SARS-CoV-2).

Ab-95 is the parent antibody, in scFv form: VH, then the linker GGGGSGGGGSGGGGS, then VL. The heavy chain is unchanged in all variants.
VH: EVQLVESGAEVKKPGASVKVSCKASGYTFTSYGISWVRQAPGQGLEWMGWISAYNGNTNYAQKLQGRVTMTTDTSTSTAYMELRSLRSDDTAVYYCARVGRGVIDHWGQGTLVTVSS
VL: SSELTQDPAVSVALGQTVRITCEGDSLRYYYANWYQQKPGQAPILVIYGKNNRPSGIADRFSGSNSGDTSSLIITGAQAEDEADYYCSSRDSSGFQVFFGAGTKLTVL

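The parent was found by panning a naive human phage display library on the peptide. In library AAYL52, one, two or three CDR residues were substituted; doubles and triples were drawn at random. Affinity was read by AlphaSeq, a pooled yeast mating assay with surface-displayed partners. Mating (16 h, 30 °C) was followed by selection of diploids and sequencing of their barcodes. A regression on co-assayed BCL2-family reference pairs converts the normalised counts of each replicate to an apparent Kd. Mating was done three times.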

Positions count from residue 1 of the parent VL; G24A puts A in place of G.
Every variant below is changed at G24 of the VL (sequential numbering).
Numbers give log10(Kd / nM), so 0 is 1 nM and 3 is 1 µM. Smaller is tighter.
"ND" marks a missing value. The strain was present, yet no cells mated with the target were sequenced in that replicate, which points to weak or no binding.
For reference, the parent read 2.31 as the reference entry and 2.25 as a member of this library.
As a blank, each scFv also met three strains without target: over library AAYL52, 28% of these pairings were detected, typically at 3.91 and seldom below 2.90. For each scFv, signals with the empty controls are counted beside the result, with their mean in brackets.

| changes | log10 Kd, replicates | signal with controls |
|---|---|---|
| G24A+N33E+F95Y | 3.65 / 4.06 / 2.83 | 2/9 (3.20) |
| G24Q+A32I+S93G | ND / ND / 4.30 | 2/9 (3.86) |
| G24W+R28A+P54W | 4.52 / ND / 4.40 | 1/9 (2.71) |
| G24N | 3.37 / 5.04 / 3.33 | 3/9 (4.15) |
| G24D+S55N+R90A | 3.07 / ND / ND | 1/9 (4.07) |
| G24I+S92K+V97S | ND / ND / ND | 1/9 (4.13) |
| G24D+D25K+N33Y | 3.44 / ND / ND | 3/9 (4.22) |
| G24C+S26V+S55M | 4.27 / ND / ND | 1/9 (5.19) |
| G24C+G49A+F98H | 3.46 / 4.16 / ND | 3/9 (4.14) |
| G24L+N51S+R53D | ND / ND / ND | 1/9 (3.15) |
| G24V+S26V+Q96E | ND / 3.58 / ND | 0/9 |
| G24E+A32E | ND / ND / ND | 2/9 (3.17) |
| G24C+S55M+G94Y | 3.30 / 3.62 / 4.11 | 3/9 (3.63) |
| G24W+R28L+P54W | ND / 3.25 / ND | 0/9 |
| G24Y+K50D+Q96P | 3.15 / 3.51 / 2.47 | 2/9 (3.65) |
| E23H+G24H+Q96F | 4.01 / 2.95 / 4.30 | 0/9 |
| G24R+S55A+Q96N | 3.84 / 3.32 / 3.85 | 3/9 (4.06) |
| G24W+N51V | 3.43 / 5.07 / ND | 5/9 (3.99) |
| E23L+G24N+F95M | ND / 3.85 / 4.40 | 3/9 (4.40) |
| G24R+P54A+D91I | ND / ND / ND | 6/9 (3.98) |
| G24A+L27I+S93L | ND / ND / ND | 2/9 (4.79) |
| G24D+R53T+S89D | ND / 5.17 / 3.39 | 2/9 (4.89) |
| G24K+Y30T+N51Q | 4.21 / 3.40 / 3.99 | 2/9 (3.82) |
| G24W+D25K+N51D | ND / ND / ND | 2/9 (4.01) |
| G24E+L27C+N33K | ND / ND / ND | 0/9 |
| G24P+S55W+S88K | ND / ND / 3.91 | 4/9 (3.85) |
| G24D+R53K+Q96S | 3.05 / 3.64 / 3.00 | 2/9 (3.90) |
| G24H+A32C+N51I | ND / ND / ND | 1/9 (2.76) |
| G24W+Y29M+Q96N | 5.31 / ND / 3.46 | 3/9 (4.28) |
| G24I+Y31R+D91T | 5.53 / 3.44 / 3.07 | 1/9 (4.18) |
| G24D+R90D+S92E | 4.61 / 3.25 / ND | 4/9 (3.65) |
| G24S+N52R | 2.96 / 3.08 / ND | 6/9 (4.48) |

The opening 5 entries, copied out:

| changes | log10 Kd, replicates | signal with controls |
|---|---|---|
| G24A+N33E+F95Y | 3.65 / 4.06 / 2.83 | 2/9 (3.20) |
| G24Q+A32I+S93G | ND / ND / 4.30 | 2/9 (3.86) |
| G24W+R28A+P54W | 4.52 / ND / 4.40 | 1/9 (2.71) |
| G24N | 3.37 / 5.04 / 3.33 | 3/9 (4.15) |
| G24D+S55N+R90A | 3.07 / ND / ND | 1/9 (4.07) |

Values reported by Engelhart et al. 2022, doi:10.1038/s41597-022-01779-4 (FLAb copy).